# Laboratory results from PubChem BioAssay AID652104 (National Center for Advancing Translational Sciences (NCATS), 2013).
# Only a part is listed here, and it is no random draw. Inconclusive results are not listed. Active and inactive are the calls of the source. Calls follow the shape of the dose curve; as a rule, active = well fitted activation curve with a large enough effect; inconclusive = small, poorly fitted or top-dose-only effect, or another doubt; inactive = no such curve, though single readings can be large or run the other way.
# Experiment: qHTS of TDP-43 Inhibitors; also: nearly all actives have a fitted effect of over 50% in size; as to growth rescue (activation): % of control where 0% means no effect
# Details: TDP-43 expressing yeast growth rescue, BacTiter-Glo, 24 h; series mostly up to 46.1 µM; growth rescue (activation): at the top concentration
# Potency is read from the fitted curve at half-maximal effect.
SMILES,growth rescue (activation),Potency
CP(=O)(Nc1ccccc1)Oc1ccc(F)cc1 (stereo not drawn),inactive: -10.7%,
CCCCCOc1ccc(NP(C)(=O)Oc2ccc(Cl)cc2Cl)cc1 (stereo not drawn),inactive: -26% [at 1.82 µM],
CCN(CC)CCCOC(=O)C(O)(c1ccccc1)C1CCCCC1 (stereo not drawn),inactive: 6.46%,
CP(=O)(Nc1ccccc1F)Oc1ccccc1 (stereo not drawn),inactive: -26.8%,
O=C(OCCN1CCN(CCOCc2ccccc2)CC1)C(O)(c1ccccc1)c1ccccc1,inactive: 12.5%,
CCOP(C)(=S)SCC(=O)NC(C)(CC)C(=O)O (stereo not drawn),inactive: 1.78%,
CP(=O)(Nc1ccc(SC(F)(F)F)cc1)Oc1ccc(F)cc1 (stereo not drawn),inactive: 10.4%,
Cc1ccccc1NP(C)(=O)Nc1ccccc1C,inactive: 0.424%,
O=[N+]([O-])c1cc([N+](=O)[O-])c(C(F)(F)F)c([N+](=O)[O-])c1O,inactive: 13.4%,
CP(=O)(Nc1ccc2c(c1)OCCO2)Oc1ccccc1 (stereo not drawn),inactive: -0.0684%,
CN(C)CCOC(=O)C(O)(c1ccccc1)C1CCCCC1 (stereo not drawn),inactive: -1.07%,
COc1ccc(NP(C)(=O)Oc2ccccc2OC)cc1 (stereo not drawn),inactive: 24.5%,
COc1ccc(OP(C)(=O)Nc2cccc(Br)c2)cc1 (stereo not drawn),inactive: 16.6%,
Cc1c(C(c2ccc3c(c2)OCO3)c2c(C)n(C)n(-c3ccccc3)c2=O)c(=O)n(-c2ccccc2)n1C.O=[N+]([O-])c1cc([N+](=O)[O-])c(O)c([N+](=O)[O-])c1,inactive: -7.35%,
O=[N+]([O-])c1ccc(OP2(=O)COCCO2)cc1 (stereo not drawn),inactive: -13.5%,
Cc1cc(-c2cccc3ccccc23)c(C)cn1.O=[N+]([O-])c1cc([N+](=O)[O-])c(O)c([N+](=O)[O-])c1,inactive: -21.8%,
CCOC(=O)c1ccc(NP(C)(=O)Oc2ccc(Cl)cc2)cc1 (stereo not drawn),inactive: 17.7%,
CP(=O)(OC12CC3CC(CC(C3)C1)C2)OC12CC3CC(CC(C3)C1)C2,inactive: -15.2%,
Nc1ccc2c(ccc3cccnc32)n1.O=[N+]([O-])c1cc([N+](=O)[O-])c(O)c([N+](=O)[O-])c1,inactive: 19.6%,
COc1ccccc1OP(C)(=O)Nc1c(C)n(C)n(-c2ccccc2)c1=O (stereo not drawn),inactive: 2.04%,
O=C(OCCCN1CCCC1)C(O)(c1ccccc1)C1CCCCC1 (stereo not drawn),inactive: 4.54%,
CP(=O)(Oc1ccccc1)N1CCOC1=O (stereo not drawn),inactive: 6.55%,

SMILES,growth rescue (activation),Potency
CCc1ccc(OP(C)(=O)Nc2cccnc2)cc1 (stereo not drawn),inactive: -15.3%,
CCN(CC)CC(O)COC(=O)C(O)(c1ccccc1)C1CCCCC1 (stereo not drawn),inactive: -5.55%,
COc1ccc(OP(C)(=O)Nc2ccc(Br)cc2)cc1 (stereo not drawn),inactive: -0.601%,
CN(C)C(=O)c1c([N+](=O)[O-])cc([N+](=O)[O-])cc1[N+](=O)[O-],inactive: 5.42%,
COc1ccccc1OP(C)(=O)Nc1ccccc1Br (stereo not drawn),inactive: -1.2%,
CC(C)(C)c1ccc(OP(C)(=O)O)cc1,inactive: -6.73%,
CP(=O)(Nc1ccc(Cl)cc1)Oc1ccc(F)cc1 (stereo not drawn),inactive: -10.7%,
COc1ccc(OP(C)(=O)Nc2ccccn2)cc1 (stereo not drawn),inactive: -17.8%,
CN(C)CCOC(=O)C(O)(c1ccccc1)C1CCCC1 (stereo not drawn),inactive: -12.9%,
COc1ccccc1OP(C)(=O)Nc1ccc(Br)cc1 (stereo not drawn),inactive: -0.194%,
CP(=O)(Nc1ccccn1)Oc1ccccc1 (stereo not drawn),inactive: -6.42%,
COc1ccccc1OP(C)(=O)Nc1ccc(C)cc1C (stereo not drawn),inactive: 19.3%,
CCc1ccc(OP(C)(=O)O)cc1,inactive: -9.03%,
Cc1c(NP(C)(=O)Oc2ccc(C(C)C)cc2)c(=O)n(-c2ccccc2)n1C (stereo not drawn),inactive: 3.76%,
O=[N+]([O-])c1cc([N+](=O)[O-])c(Nc2ccccn2)c([N+](=O)[O-])c1,,active: 12.6 µM
COc1ccccc1OP(C)(=O)Nc1ccc(C)c(C)c1 (stereo not drawn),inactive: -9.92%,
COc1ccc(OP(C)(=O)Nc2ccccc2Br)cc1 (stereo not drawn),inactive: 10.3%,
Cc1cc(C)cc(OP(C)(=O)Nc2cccc(C(F)(F)F)c2)c1 (stereo not drawn),inactive: -24.6%,
CP(=O)(Nc1ccc(Cl)cc1Cl)Oc1ccccc1 (stereo not drawn),inactive: 17.7%,
CCCCCCCCCCCCCCCC1C[N+](C)(C)CCOP(C)(=O)O1 (stereo not drawn),inactive: -48.6%,
CP(=O)(OCCOc1ccccc1)OCCOc1ccccc1,inactive: 17.4%,
